# Apparent affinities of Ab-95 variants for a coronavirus HR2 peptide

From the AlphaSeq antibody data of Engelhart et al. 2022 (doi:10.1038/s41597-022-01779-4), copy in the FLAb collection.

All variants were tested on one target, the spike HR2 peptide PDVDLGDISGINAS (SARS-CoV-2).

Ab-95 is the parent antibody, in scFv form: VH, then a (GGGGS)3 linker, then VL. The heavy chain is unchanged in all variants.
VH: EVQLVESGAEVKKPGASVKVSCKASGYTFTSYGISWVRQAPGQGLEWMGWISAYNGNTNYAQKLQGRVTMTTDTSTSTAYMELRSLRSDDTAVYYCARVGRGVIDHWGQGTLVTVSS
VL: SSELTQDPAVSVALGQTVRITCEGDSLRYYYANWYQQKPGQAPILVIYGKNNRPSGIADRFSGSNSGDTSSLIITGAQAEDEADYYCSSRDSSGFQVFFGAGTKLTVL

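Phage display of a naive human antibody library on the peptide gave the parent. In library AAYL52, one, two or three CDR residues were substituted; doubles and triples were drawn at random. AlphaSeq pools MATa yeast showing the antibodies with MATalpha yeast showing the peptide. The frequency of each diploid, read from paired DNA barcodes, reflects how well the two displayed proteins bind. Scores were corrected for input abundance and mapped to Kd with protein pairs of known affinity run in the same pool. There are three technical replicates.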

Positions count from residue 1 of the parent VL; Y30G puts G in place of Y.
All variants listed here change A32 of the VL, counted from its first residue.
Kd is apparent (estimated from mating counts) and averaged on the log scale over replicates with a signal. Smaller is tighter.
"no signal" means that the variant was in the library but no mating with the target was seen in any replicate; the authors take this as a sign of poor binding, and no number exists.
Order: sorted from the lowest average up, undetected variants last.
As a blank, each scFv also met three strains without target: over library AAYL52, 28% of these pairings were detected, typically at 8.2 µM and seldom below 800 nM.

With Y30G A32C the result was 5.8 nM (3 of 3 replicates). The variant A32S K50E S89V gave 110 nM (3 of 3 replicates). With A32T S92I the result was 120 nM (3 of 3 replicates). With E23F Y30E A32T the result was 120 nM (3 of 3 replicates). With D25Q Y30G A32F the result was 170 nM (3 of 3 replicates). For G24T Y29C A32P, the assay gave 220 nM (3 of 3 replicates). With A32M R53N S55P the result was 240 nM (3 of 3 replicates).

The variant A32V G94D F98I gave 290 nM (3 of 3 replicates). For S26A L27F A32T, the assay gave 310 nM (3 of 3 replicates). With R28S A32T the result was 380 nM (3 of 3 replicates). With A32S G94A the result was 740 nM (3 of 3 replicates). For A32N K50Q S88N, the assay gave 770 nM (3 of 3 replicates). The variant Y29P Y30I A32F showed 1.1 µM (3 of 3 replicates). With E23V A32C N52R the result was 1.2 µM (1 of 3 replicates).

The variant E23M Y30F A32S gave 1.4 µM (3 of 3 replicates). The variant E23G A32D S88P showed 2.0 µM (1 of 3 replicates). With A32Y Q96Y the result was 2.8 µM (2 of 3 replicates). With A32R K50H F95W the result was 2.9 µM (3 of 3 replicates). The variant A32S R90W D91Q gave 3.0 µM (3 of 3 replicates). The variant Y31L A32V Q96G showed 3.8 µM (3 of 3 replicates). With Y31N A32N F98R the result was 3.9 µM (3 of 3 replicates).

With A32T N33A K50N the result was 5.6 µM (2 of 3 replicates). For A32N N52R S55G, the assay gave 6.0 µM (3 of 3 replicates). The variant E23Y L27S A32C showed 6.4 µM (3 of 3 replicates). For S26P A32M, the assay gave 8.0 µM (2 of 3 replicates). The variant A32Q Q96C showed 8.2 µM (2 of 3 replicates). For A32G R53S V97Y, the assay gave 10 µM (1 of 3 replicates). The variant Y29P A32F G49C showed 11 µM (1 of 3 replicates).

With D25I Y29H A32W the result was 11 µM (1 of 3 replicates). For A32P G49F Q96H, the assay gave 11 µM (2 of 3 replicates). For A32H K50F R53K, the assay gave 13 µM (1 of 3 replicates). For A32W S93C V97S, the assay gave 13 µM (3 of 3 replicates). With A32V N51F S55M the result was 14 µM (2 of 3 replicates). The variant A32M G49L S93D gave 15 µM (1 of 3 replicates). The variant D25Y A32R V97L gave 16 µM (1 of 3 replicates).

The variant A32T N33G N51P showed 25 µM (2 of 3 replicates). With A32E G49C S92A the result was 34 µM (2 of 3 replicates). The variant A32G N33K R53M gave 36 µM (1 of 3 replicates). The variant E23T A32G G49Y showed 40 µM (2 of 3 replicates). For E23W Y29H A32I, the assay gave 42 µM (1 of 3 replicates). For A32C F98D, the assay gave 43 µM (2 of 3 replicates). The variant A32L N52K P54Y showed 52 µM (1 of 3 replicates).

For A32K S89R F98V, the assay gave 81 µM (1 of 3 replicates). With E23K A32W G49R the result was 90 µM (2 of 3 replicates). The variant S26Q A32Q R90V showed 110 µM (3 of 3 replicates). The variant Y31N A32M R53W gave 120 µM (1 of 3 replicates). The variant A32V N51L R90M gave 140 µM (2 of 3 replicates). The variant A32Y S89G R90L showed no signal (0 of 3 replicates). For A32I G94A V97W, the assay gave no signal (0 of 3 replicates).

For G24P A32S Q96I, the assay gave no signal (0 of 3 replicates). For G24A A32K N33T, the assay gave no signal (0 of 3 replicates).

The last 4 entries again:

The variant A32Y S89G R90L showed no signal (0 of 3 replicates).
The variant A32I G94A V97W showed no signal (0 of 3 replicates).
The variant G24P A32S Q96I showed no signal (0 of 3 replicates).
The variant G24A A32K N33T showed no signal (0 of 3 replicates).